Target: T1, Porcine brain tubulin plus MAPs (Sus scrofa, UniProt P02550+P02554)
T1 construct: Porcine brain tubulin plus MAPs was prepared by two cycles of polymerization and depolymerization; from tissue; host or cells: porcine brain
Experiment: In vitro tubulin polymerization assay
Format: biochemical
Conditions: read-out: IC50, inhibition of tubulin polymerization in vitro; 5.6 mg/ml tubulin-MAPs, 37°C, 40 min
Protocol: Porcine brain tubulin plus MAPs was prepared by two cycles of polymerization and depolymerization according to a standard protocol ([Gell et al., 2011]). In-vitro tubulin polymerization assays were carried out in PEM buffer (100 mM PIPES, 2 mM EGTA, 0.1 mM EDTA, 3 mM MgCl2, 1 mM ATP and 1 mM GTP, pH 6.85) by mixing 5.6 mg/ml tubulin-MAPs with different concentrations of cucurbitacins in 96-well plates at 37°C for 40 min. The rate and extent of the polymerization reaction were monitored by light scattering at 360 nm using Tecan infinite M200 Pro.
The IC50 and IC80 were determined as the amount of the substances needed to reduce 50% or 80% cell viability/tubulin polymerization and calculated from concentration–response curves by Sigmaplot software (Systat Software Inc., San Jose, USA). All experiments were done in triplicate, repeated three times. Data are presented as mean ± standard deviation (SD). Statistical comparison between controls and different treatments were performed by an unpaired student’s t test using Microsoft excel 2013 (Microsoft Corporation, Washington, USA). Significance was considered at p < 0.05.

Sequences of proteins named here, by UniProt entry; tags and fusion partners are left off.
UniProt P02550, whole entry: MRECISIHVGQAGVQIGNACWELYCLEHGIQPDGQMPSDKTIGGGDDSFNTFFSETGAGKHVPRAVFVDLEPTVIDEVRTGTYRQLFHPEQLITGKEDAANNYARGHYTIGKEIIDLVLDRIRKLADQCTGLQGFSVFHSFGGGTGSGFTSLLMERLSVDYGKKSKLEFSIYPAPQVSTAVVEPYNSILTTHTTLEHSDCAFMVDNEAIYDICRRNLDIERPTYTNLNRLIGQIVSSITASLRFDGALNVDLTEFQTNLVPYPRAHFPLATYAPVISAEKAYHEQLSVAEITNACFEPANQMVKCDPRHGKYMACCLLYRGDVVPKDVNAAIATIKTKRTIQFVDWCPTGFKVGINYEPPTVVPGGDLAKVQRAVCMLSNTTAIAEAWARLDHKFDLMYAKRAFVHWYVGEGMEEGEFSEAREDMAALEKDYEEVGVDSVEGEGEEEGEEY
UniProt P02554, whole entry: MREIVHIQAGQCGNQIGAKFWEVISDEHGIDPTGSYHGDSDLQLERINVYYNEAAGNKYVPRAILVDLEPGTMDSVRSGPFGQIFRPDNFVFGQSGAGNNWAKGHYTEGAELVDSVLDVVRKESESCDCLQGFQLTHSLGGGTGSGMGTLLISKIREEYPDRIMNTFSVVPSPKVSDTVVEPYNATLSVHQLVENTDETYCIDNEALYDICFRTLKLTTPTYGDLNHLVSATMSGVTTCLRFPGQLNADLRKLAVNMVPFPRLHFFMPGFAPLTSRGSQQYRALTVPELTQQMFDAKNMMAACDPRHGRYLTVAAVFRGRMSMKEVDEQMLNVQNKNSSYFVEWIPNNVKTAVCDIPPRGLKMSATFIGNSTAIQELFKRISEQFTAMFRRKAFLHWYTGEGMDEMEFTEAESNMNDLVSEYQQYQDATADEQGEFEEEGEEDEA

With cucurbitacin B the IC50 was > 1000 µM.

From publication PMC5452965 (PeerJ, 2017)
